pKi: −log10 of the molar value.

The chains behind the UniProt entries cited, without tags or fusion partners. Residues count along the entry.
UniProt O60674, 849-1124: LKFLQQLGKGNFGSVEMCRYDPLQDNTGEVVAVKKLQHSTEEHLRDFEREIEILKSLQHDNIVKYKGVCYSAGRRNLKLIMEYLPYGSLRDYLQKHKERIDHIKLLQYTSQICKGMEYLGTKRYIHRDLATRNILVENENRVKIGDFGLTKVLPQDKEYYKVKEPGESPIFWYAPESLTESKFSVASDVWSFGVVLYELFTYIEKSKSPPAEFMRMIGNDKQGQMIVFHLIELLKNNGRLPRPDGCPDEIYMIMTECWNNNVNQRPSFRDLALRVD

For the test, the target named is isolated recombinant JAK2 kinase domain (Homo sapiens (Human), UniProt O60674). Description: JAK2 enzyme assay (Caliper LabChip, peptide phosphorylation). The settings on record: 25 μM ATP. It is filed as biochemical.
`NC1CCN(C(=O)Cn2cc(NC(=O)c3cnn4cccnc34)c(-c3cc(Cl)ccc3OC(F)F)n2)CC1` [Example 66, N-[1-[2-(4-amino-1-piperidyl)-2-oxo-ethyl]-3-[5-chloro-2-(difluoromethoxy)phenyl]pyrazol-4-yl]pyrazolo[1,5-a]pyrimidine-3-carboxamide]: the pKi (in general, −log10 of the Ki, conventionally taken in molar units) was 8.75. For `NC[C@@H]1CCCN1C(=O)Cn1cc(NC(=O)c2cnn3cccnc23)c(-c2cc(Cl)ccc2OC(F)F)n1` [Example 81, N-[1-[2-[(2S)-2-(aminomethyl)pyrrolidin-1-yl]-2-oxo-ethyl]-3-[5-chloro-2-(difluoromethoxy)phenyl]pyrazol-4-yl]pyrazolo[1,5-a]pyrimidine-3-carboxamide], the pKi is 8.49.

Turning to `O=C(Nc1sc(CN2CCCCC2)nc1-c1cc(Cl)ccc1OC(F)F)c1cnn2cccnc12` [Example 263, N-[4-[5-chloro-2-(difluoromethoxy)phenyl]-2-(1-piperidylmethyl)thiazol-5-yl]pyrazolo[1,5-a]pyrimidine-3-carboxamide], the negative-log Ki (pKi) is 8.69. As to `O=C(Nc1cn(CC(O)CN2CCOCC2)nc1-c1cc(Cl)ccc1OC(F)F)c1cnn2cccnc12` (stereo not shown) [Example 403, N-(3-(5-chloro-2-(difluoromethoxy)phenyl)-1-(2-hydroxy-3-morpholinopropyl)-1H-pyrazol-4-yl)pyrazolo[1,5-a]pyrimidine-3-carboxamide], the pKi is 9.15. `CN(C)C1CCN(C(=O)Cn2cc(NC(=O)c3cnn4cccnc34)c(-c3cc(Cl)ccc3OC(F)F)n2)CC1` [Example 67, N-[3-[5-chloro-2-(difluoromethoxy)phenyl]-1-[2-[4-(dimethylamino)-1-piperidyl]-2-oxo-ethyl]pyrazol-4-yl]pyrazolo[1,5-a]pyrimidine-3-carboxamide]: the negative-log Ki (pKi) was 8.73. As for `CN(C1CCN(C(=O)Cn2cc(NC(=O)c3cnn4cccnc34)c(-c3cc(Cl)ccc3OC(F)F)n2)CC1)C1COC1` [Example 459, N-(3-(5-chloro-2-(difluoromethoxy)phenyl)-1-(2-(4-(methyl(oxetan-3-yl)amino)piperidin-1-yl)-2-oxoethyl)-1H-pyrazol-4-yl)pyrazolo[1,5-a]pyrimidine-3-carboxamide], the pKi was 9.14.

For `CSCCOC(=O)CNCCn1cc(NC(=O)c2cnn3cccnc23)c(-c2cc(Cl)ccc2OC(F)F)n1` [Example 396, 2-(methylthio)ethyl 2-(2-(3-(5-chloro-2-(difluoromethoxy)phenyl)-4-(pyrazolo[1,5-a]pyrimidine-3-carboxamido)-1H-pyrazol-1-yl)ethylamino)acetate], the pKi is 8.89. Turning to `CN1CCN(C/C=C/Cn2cc(NC(=O)c3cnn4cccnc34)c(-c3cc(Cl)ccc3OC(F)F)n2)CC1` [Example 395, N-[3-[5-chloro-2-(difluoromethoxy)phenyl]-1-[(2E)-4-(4-methylpiperazin-1-yl)but-2-en-1-yl]-1H-pyrazol-4-yl]pyrazolo[1,5-a]pyrimidine-3-carboxamide], the pKi is 9.02. For `CN(C1CCN(C(=O)Cn2cc(NC(=O)c3cnn4cccnc34)c(-c3cc(Cl)ccc3OC(F)F)n2)CC1)[C@@H]1CCOC1` [Example 432, N-(3-(5-chloro-2-(difluoromethoxy)phenyl)-1-(2-(4-(methyl((R)-tetrahydrofuran-3-yl)amino)piperidin-1-yl)-2-oxoethyl)-1H-pyrazol-4-yl)pyrazolo[1,5-a]pyrimidine-3-carboxamide], the pKi is 8.92. In the case of `CN1CCN(C2CCN(C(=O)Cn3cc(NC(=O)c4cnn5cccnc45)c(-c4cc(Cl)ccc4OC(F)F)n3)CC2)CC1=O` [Example 416, N-(3-(5-chloro-2-(difluoromethoxy)phenyl)-1-(2-(4-(4-methyl-3-oxopiperazin-1-yl)piperidin-1-yl)-2-oxoethyl)-1H-pyrazol-4-yl)pyrazolo[1,5-a]pyrimidine-3-carboxamide], the pKi is 9.08. In the case of `CN(C)C(=O)CNC1CCN(C(=O)Cn2cc(NC(=O)c3cnn4cccnc34)c(-c3cc(Cl)ccc3OC(F)F)n2)CC1` [Example 401, N-(3-(5-chloro-2-(difluoromethoxy)phenyl)-1-(2-(4-(2-(dimethylamino)-2-oxoethylamino)piperidin-1-yl)-2-oxoethyl)-1H-pyrazol-4-yl)pyrazolo[1,5-a]pyrimidine-3-carboxamide] it was 8.69; in that of `CN1C[C@H]2C[C@@H]1CN2C(=O)Cn1cc(NC(=O)c2c(N)nn3cccnc23)c(-c2cc(Cl)ccc2OC(F)F)n1` [Example 252, 2-amino-N-[3-[5-chloro-2-(difluoromethoxy)phenyl]-1-[2-[(1R,4R)-5-methyl-2,5-diazabicyclo[2.2.1]heptan-2-yl]-2-oxo-ethyl]pyrazol-4-yl]pyrazolo[1,5-a]pyrimidine-3-carboxamide], 9.82.

As for `O=C(Nc1cn(Cc2cn(C3CCN(C4CCOCC4)CC3)nn2)nc1-c1cc(Cl)ccc1OC(F)F)c1cnn2cccnc12` [Example 457, N-(3-(5-chloro-2-(difluoromethoxy)phenyl)-1-((1-(1-(tetrahydro-2H-pyran-4-yl)piperidin-4-yl)-1H-1,2,3-triazol-4-yl)methyl)-1H-pyrazol-4-yl)pyrazolo[1,5-a]pyrimidine-3-carboxamide], the pKi is 9.59. On to `CN(CC1(C)OCCO1)C1CCN(C(=O)Cn2cc(NC(=O)c3cnn4cccnc34)c(-c3cc(Cl)ccc3OC(F)F)n2)CC1` [Example 438, N-(3-(5-chloro-2-(difluoromethoxy)phenyl)-1-(2-(4-(methyl((2-methyl-1,3-dioxolan-2-yl)methyl)amino)piperidin-1-yl)-2-oxoethyl)-1H-pyrazol-4-yl)pyrazolo[1,5-a]pyrimidine-3-carboxamide], for which the pKi is 8.72. In the case of `O=C(Nc1cn(CC(=O)N2CCC(NCCc3ccc(C(F)(F)F)cc3)CC2)nc1-c1cc(Cl)ccc1OC(F)F)c1cnn2cccnc12` [Example 93, N-[3-[5-chloro-2-(difluoromethoxy)phenyl]-1-[2-oxo-2-[4-[2-[4-(trifluoromethyl)phenyl]ethylamino]-1-piperidyl]ethyl]pyrazol-4-yl]pyrazolo[1,5-a]pyrimidine-3-carboxamide] it was 8.59. In the case of `CN1CCC2(CC1)CN(C(=O)Cn1cc(NC(=O)c3c(N)nn4cccnc34)c(-c3cc(Cl)ccc3OC(F)F)n1)CCO2` [Example 215, 2-amino-N-[3-[5-chloro-2-(difluoromethoxy)phenyl]-1-[2-(9-methyl-1-oxa-4,9-diazaspiro[5.5]undecan-4-yl)-2-oxo-ethyl]pyrazol-4-yl]pyrazolo[1,5-a]pyrimidine-3-carboxamide] it was 8.90; in that of `CN1CCC2CN(C(=O)Cn3cc(NC(=O)c4c(N)nn5cccnc45)c(-c4cc(Cl)ccc4OC(F)F)n3)CCC21` (stereo not shown) [Example 56, 2-amino-N-[3-[5-chloro-2-(difluoromethoxy)phenyl]-1-[2-(1-methyl-3,3a,4,6,7,7a-hexahydro-2H-pyrrolo[3,2-c]pyridin-5-yl)-2-oxo-ethyl]pyrazol-4-yl]pyrazolo[1,5-a]pyrimidine-3-carboxamide], 9.59. `O=C(Nc1cn([C@@H]2CNCC[C@H]2O)nc1-c1cc(Cl)ccc1OC(F)F)c1cnn2cccnc12` [Example 360, N-[3-[5-chloro-2-(difluoromethoxy)phenyl]-1-[(3R,4R)-4-hydroxypiperidin-3-yl]-1H-pyrazol-4-yl]pyrazolo[1,5-a]pyrimidine-3-carboxamide]: the pKi was 8.77. In the case of `O=C(O)CCN1CCN(C(=O)Cn2cc(NC(=O)c3cnn4cccnc34)c(-c3cc(Cl)ccc3OC(F)F)n2)CC1` [Example 353, 3-[4-(2-[3-[5-chloro-2-(difluoromethoxy)phenyl]-4-[pyrazolo[1,5-a]pyrimidine-3-amido]-1H-pyrazol-1-yl]acetyl)piperazin-1-yl]propanoic acid], the pKi was 9.44. For the molecule `CN(C)C1CCN(c2nc(-c3cc(Cl)ccc3OC(F)F)c(NC(=O)c3cnn4cccnc34)s2)CC1` [Example 188, Pyrazolo[1,5-a]pyrimidine-3-carboxylic acid [4-(5-chloro-2-difluoromethoxy-phenyl)-2-(4-dimethylamino-piperidin-1-yl)-thiazol-5-yl]-amide], the pKi was 9.08.

For `CN(C)C1CN(C(=O)Cn2cc(NC(=O)c3c(N)nn4cccnc34)c(-c3cc(Cl)ccc3OC(F)F)n2)C1` [Example 138, 2-amino-N-[3-[5-chloro-2-(difluoromethoxy)phenyl]-1-[2-[3-(dimethylamino)azetidin-1-yl]-2-oxo-ethyl]pyrazol-4-yl]pyrazolo[1,5-a]pyrimidine-3-carboxamide], the pKi was 9.59. As to `O=C(CN1CCOCC1)Cn1cc(NC(=O)c2cnn3cccnc23)c(-c2cc(Cl)ccc2OC(F)F)n1` [Example 412, N-(3-(5-chloro-2-(difluoromethoxy)phenyl)-1-(3-morpholino-2-oxopropyl)-1H-pyrazol-4-yl)pyrazolo[1,5-a]pyrimidine-3-carboxamide], the negative logarithm of the Ki (pKi) was 9.02.

For the molecule `COCCN1CCN(C(=O)Cn2cc(NC(=O)c3cnn4cccnc34)c(-c3cc(Cl)ccc3OC(F)F)n2)CC1` [Example 229, N-[3-[5-chloro-2-(difluoromethoxy)phenyl]-1-[2-[4-(2-methoxyethyl)piperazin-1-yl]-2-oxo-ethyl]pyrazol-4-yl]pyrazolo[1,5-a]pyrimidine-3-carboxamide], the pKi is 9.08.

Regarding `Nc1nn2cccnc2c1C(=O)Nc1cn(C2CCN(CCCC(=O)N3CCOCC3)CC2)nc1-c1cc(Cl)ccc1OC(F)F` [Example 147, 2-amino-N-[3-[5-chloro-2-(difluoromethoxy)phenyl]-1-[1-(4-morpholino-4-oxo-butyl)-4-piperidyl]pyrazol-4-yl]pyrazolo[1,5-a]pyrimidine-3-carboxamide], the pKi was 9.85.

Turning to `COC(=O)CCN1CCN(C(=O)Cn2cc(NC(=O)c3cnn4cccnc34)c(-c3cc(Cl)ccc3OC(F)F)n2)CC1` [Example 331, methyl 3-[4-(2-[3-[5-chloro-2-(difluoromethoxy)phenyl]-4-[pyrazolo[1,5-a]pyrimidine-3-amido]-1H-pyrazol-1-yl]acetyl)piperazin-1-yl]propanoate], the pKi is 9.11.
